Test results from article PMC8245773, “Brevibacillin 2V, a Novel Antimicrobial Lipopeptide With an Exceptionally Low Hemolytic Activity” (Frontiers in Microbiology, 2021).

Tested on: K. pneumoniae LMG20218
Test: Synergy assay, checkerboard method
Details: antibiotic + brevibacillin, synergistic ≤0.5

## CO[C@H]1/C=C/O[C@@]2(C)Oc3c(C)c(O)c4c(O)c(c(/C=N/N5CCN(C)CC5)c(O)c4c3C2=O)NC(=O)/C(C)=C\C=C\[C@H](C)[C@H](O)[C@@H](C)[C@@H](O)[C@@H](C)[C@H](OC(C)=O)[C@@H]1C [Rifampicin]
  FICI: 0.281
